# Measured affinities in a library of Ab-14 light chain variants

Target: peptide PDVDLGDISGINAS, taken from heptad repeat 2 (HR2) of SARS-CoV-2 spike.

Parent scFv Ab-14: VH joined to VL by the linker GGGGSGGGGSGGGGS. Changes lie in the light chain CDRs alone.
VH: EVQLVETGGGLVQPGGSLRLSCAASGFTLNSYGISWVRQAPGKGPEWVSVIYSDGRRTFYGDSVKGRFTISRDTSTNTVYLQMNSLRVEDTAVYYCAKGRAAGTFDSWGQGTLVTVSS
VL: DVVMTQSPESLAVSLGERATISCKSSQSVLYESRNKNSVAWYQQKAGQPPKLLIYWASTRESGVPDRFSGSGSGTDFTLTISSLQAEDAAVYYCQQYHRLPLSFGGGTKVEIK

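Phage display of a naive human antibody library on the peptide gave the parent. In library AAYL50, one, two or three CDR residues were substituted; doubles and triples were drawn at random. In AlphaSeq, yeast of one mating type display the scFv and yeast of the other type display the target. Pairs that bind mate more often; barcode pairs of the diploids are counted by sequencing. A regression on co-assayed BCL2-family reference pairs converts the normalised counts of each replicate to an apparent Kd. Each pool was mated in three replicate cultures.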

Variants are written as CDR1, CDR2 and CDR3 of the light chain (limits as in the source). Parent: KSSQSVLYESRNKNSVA, WASTRES, QQYHRLPLS. Affinities are written as log10 Kd with Kd in nM; a lower number is a better binder. Averages over replicates are reported, and they cover detected replicates only. "ND" marks a missing value. The strain was present, yet no cells mated with the target were sequenced in that replicate, which points to weak or no binding. For reference, the parent read 0.65 as the reference entry and 1.68 as a member of this library. Three control strains display no target. For library AAYL50, 18% of the pairings with them gave a signal, with a median of 4.19 and one signal in twenty below 2.99, so weak values seen in few replicates may be background. For each scFv, signals with the empty controls are counted beside the result, with their mean in brackets.

| CDR-L1 | CDR-L2 | CDR-L3 | replicates, log10 nM | mean log10 Kd (nM) | control signals |
|---|---|---|---|---|---|
| KSGQSVLYESRNKNSVA | WASTREV | QQYHRLCLS | 1.28 1.25 1.32 | 1.28 | 2/9 (3.75) |
| KSSQSVLYESRNQNSVA | WAGTRDS | QQYHRLPLS | 1.46 1.50 1.60 | 1.52 | 4/9 (4.03) |
| KSSQSVLYESRIKDSVA | WASTRPS | QQYHRLPLS | ND 3.22 ND | 3.22 | 1/9 (3.05) |
| TYSQSVLYESRNKNSVA | WASTRES | QQYHRLPTS | 4.32 3.79 ND | 4.06 | 3/9 (4.06) |
| KSSQSVLYESENKNSVA | WASDRES | QFYHRLPLS | 2.84 2.31 2.68 | 2.61 | 3/9 (4.23) |
| KISQSVHYESRNKNSVA | WASTRES | QQYFRLPLS | 0.83 0.87 0.67 | 0.79 | 1/9 (3.46) |
| KSFQSVLYESRNKNSVA | WASTRES | QQYHRLNLQ | ND ND ND | ND | 1/9 (3.19) |
| KSSQSVLYEPRNKNSVA | WASTREY | QHYHRLPLS | 1.97 2.03 1.90 | 1.97 | 1/9 (3.56) |
| NSSQSVLCESRNKNSVA | WASTRES | QQYHRLELS | 2.39 2.75 2.46 | 2.53 | 1/9 (3.66) |
| QASQSVLYDSRNKNSVA | WASTRES | QQYHRLPLS | 0.51 0.81 0.64 | 0.65 | 3/9 (4.94) |
| KSSMSVLYESRNKNSVA | WAFTREC | QQYHRLPLS | ND 2.90 ND | 2.90 | 0/9 |
| KSSQSVLYEYRNKNSVS | WASTRES | QQYHRLPLS | 3.73 ND ND | 3.73 | 0/9 |
| KSSQSVLYESRNTNSVW | WASTRES | QQYMRLPLS | ND ND ND | ND | 1/9 (4.33) |
| KSSQSVLYNSRNKNSVA | WASTREA | QYYHRLPLS | 0.68 0.77 0.83 | 0.76 | 1/9 (4.32) |
| KSSQSVLYESRNDNSVA | WASTRES | QVYFRLPLS | ND 3.15 ND | 3.15 | 1/9 (3.29) |
| KSSQSCLWESRNKNSVA | WASTRES | FQYHRLPLS | ND ND ND | ND | 3/9 (5.08) |
| KSYQTVLYESRNKNSVA | WASTRES | QQYHRLPLS | 2.10 2.07 2.09 | 2.09 | 5/9 (4.42) |
| KSSQSVLYESRMCNGVA | WASTRES | QQYHRLPLS | 2.37 2.16 2.72 | 2.41 | 8/9 (4.18) |
| KSSQSVLYESRMKNSVA | WFSTRES | QKYHRLPLS | ND ND ND | ND | 0/9 |
| KCSDSVLYESRNKNSVA | WASTHES | QQYHRLPLS | ND ND ND | ND | 0/9 |
| KSSQSVLYESRNKNSEM | WASTRES | QQYHRLPLK | ND ND ND | ND | 1/9 (4.73) |
| KSSQSVLMESRNKNSQA | WASTRES | YQYHRLPLS | ND ND ND | ND | 1/9 (3.34) |
| KMSQSVLYESRNKNSVA | WASTRES | VQYHRIPLS | ND ND 2.81 | 2.81 | 0/9 |
| KSSQSVLYESRNKNSVA | WASDRES | QQNHRLPLR | 2.12 1.87 2.09 | 2.03 | 2/9 (4.39) |
| KSSQSVLYEGRNKNVVA | WASTRES | QQYHRLPLS | ND 3.59 ND | 3.59 | 0/9 |
| KSSQSVLSESRNKNSVA | WASTRES | QYYHRLPLK | 1.16 1.28 1.01 | 1.15 | 1/9 (4.09) |
| KSSQSVLYESRVKCSVA | WASTRES | QQYHRLPLS | 2.43 1.97 1.96 | 2.12 | 0/9 |
| KSSQSYLYESRKKNSVA | WAVTRES | QQYHRLPLS | 3.42 2.29 3.24 | 2.98 | 0/9 |
| KSSQSVLGESRNKNSVA | WFSTRES | QQDHRLPLS | ND ND ND | ND | 0/9 |
| DQMQSVLYESRNKNSVA | WASTRES | QQYHRLPLS | 2.31 3.20 ND | 2.76 | 2/9 (4.10) |
| KSSQSVLYESRNKNYVA | WATTREH | QQYHRLPLS | ND ND ND | ND | 0/9 |
| KSSQSVLYESRSKNSVA | WASTRES | QQYHRLMLV | ND ND ND | ND | 0/9 |
| KSSQKVLYETRNKNSVA | WASTRES | VQYHRLPLS | ND ND ND | ND | 0/9 |
| KSSQSVLYESRAKNHVA | WASTRLS | QQYHRLPLS | 2.30 2.04 3.86 | 2.74 | 2/9 (3.43) |
| KSSDSVLYESRNKNFVA | WASTRES | QQYHRLSLS | ND 2.24 2.65 | 2.45 | 2/9 (4.02) |
| KSSQSVLYESRNDNSVA | WANTRES | QQYHRLPYS | 2.32 2.20 2.33 | 2.28 | 0/9 |
| KSSMSVLYESRNKNSMA | WASTREK | QQYHRLPLS | 0.91 0.97 1.09 | 0.99 | 2/9 (4.23) |
| KSSQFVLLESRNKNSVA | WASTREP | QQYHRLPLS | ND ND ND | ND | 0/9 |
| KSSQSVLYEARNKNSVA | WASTRES | QTYHWLPLS | ND ND ND | ND | 0/9 |

Repeated from above, the 3 best binders with a signal in all replicates:

| CDR-L1 | CDR-L2 | CDR-L3 | replicates, log10 nM | mean log10 Kd (nM) | control signals |
|---|---|---|---|---|---|
| QASQSVLYDSRNKNSVA | WASTRES | QQYHRLPLS | 0.51 0.81 0.64 | 0.65 | 3/9 (4.94) |
| KSSQSVLYNSRNKNSVA | WASTREA | QYYHRLPLS | 0.68 0.77 0.83 | 0.76 | 1/9 (4.32) |
| KISQSVHYESRNKNSVA | WASTRES | QQYFRLPLS | 0.83 0.87 0.67 | 0.79 | 1/9 (3.46) |

Source: Engelhart et al. 2022 (doi:10.1038/s41597-022-01779-4), MIT Lincoln Laboratory and A-Alpha Bio; data file from the FLAb repository.